The chains behind the UniProt entries cited, without tags or fusion partners. Residues count along the entry.
UniProt O75460, 19-977 limits assumed: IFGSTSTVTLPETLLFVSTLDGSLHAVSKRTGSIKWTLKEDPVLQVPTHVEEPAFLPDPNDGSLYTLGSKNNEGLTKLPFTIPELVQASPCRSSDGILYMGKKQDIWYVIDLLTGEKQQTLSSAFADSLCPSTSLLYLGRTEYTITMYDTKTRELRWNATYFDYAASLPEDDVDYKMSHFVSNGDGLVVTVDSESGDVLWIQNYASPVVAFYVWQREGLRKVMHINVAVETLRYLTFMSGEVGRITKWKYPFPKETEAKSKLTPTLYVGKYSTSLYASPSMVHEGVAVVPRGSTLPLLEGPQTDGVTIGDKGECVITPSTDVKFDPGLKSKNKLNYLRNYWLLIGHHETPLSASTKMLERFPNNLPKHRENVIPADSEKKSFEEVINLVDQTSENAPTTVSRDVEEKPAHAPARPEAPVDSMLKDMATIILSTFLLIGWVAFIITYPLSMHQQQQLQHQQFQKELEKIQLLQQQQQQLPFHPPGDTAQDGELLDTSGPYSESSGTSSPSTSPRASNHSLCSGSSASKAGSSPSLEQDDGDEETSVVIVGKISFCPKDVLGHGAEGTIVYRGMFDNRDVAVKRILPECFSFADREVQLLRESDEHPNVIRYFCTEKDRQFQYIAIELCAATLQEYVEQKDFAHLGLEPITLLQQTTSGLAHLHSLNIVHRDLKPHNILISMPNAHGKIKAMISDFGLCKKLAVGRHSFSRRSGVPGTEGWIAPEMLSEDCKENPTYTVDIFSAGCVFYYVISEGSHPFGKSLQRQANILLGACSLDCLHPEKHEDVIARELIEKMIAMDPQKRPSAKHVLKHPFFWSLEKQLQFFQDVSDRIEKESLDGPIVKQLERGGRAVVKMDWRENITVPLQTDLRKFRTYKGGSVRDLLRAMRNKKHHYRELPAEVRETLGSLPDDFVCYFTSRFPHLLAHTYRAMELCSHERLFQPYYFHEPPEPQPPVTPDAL

According to US20180346446A1, “IRE1 SMALL MOLECULE INHIBITORS” (QUENTIS THERAPEUTICS, INC., priority 2017, published 2018):

Columns and labels:
IRE1a [1] = molecular target: T1, IRE1a (Homo sapiens, UniProt O75460); assay: In vitro FRET assay (XBP1 RNA probe cleavage by IRE1a); conditions: read-out: Mean IC50, 2 nM IRE1a protein
Procedure: In vitro FRET assay was performed to evaluate the ability of select compounds to inhibit IRE1, the results of which are summarized in Table 3. To perform the in vitro FRET assay, 1× complete assay buffer (CAB; […], 50 mM sodium citrate pH 7.15, ImM magnesium acetate, 0.02% tween 20) was used to dilute SignalChem IRE1a protein to a final concentration of 2 nM. Selected compounds were serially diluted with DMSO in a non-binding black 384-well plate for a total of 15 ul in each well. 2 ul of the serially diluted compound or DMSO control were then added to new wells containing 98 ul of 1×CAB, for a total volume of 100 ul, 10 ul of which were then transferred to wells of a new plate. 5 ul of the diluted IRE1a was then added to each well. 5 ul of a […] XBP1 RNA probe was then added to each well. Fluorescence was then read over 30 minutes in kinetic mode (485/515 nm).
Two RNA probes were used, XBP1 wildtype (SEQ ID NO: 2) which is able to be spliced by active IRE1a or XBP1 mutant (SEQ ID NO: 3) which is unable to be spliced. Each probe contained a 5′ 6-FAM modification and a 3′ IOWA Black FQ modification. […]

IRE1a [2] = molecular target: T1, IRE1a; assay: IRE1a Endoribonuclease Nanoluciferase Assay (XBP1 luciferase reporter in 293T cells); conditions: read-out: Mean EC50; 293T cells transfected with XBP1 luciferase reporter, ER stressors +/- inhibitors
Procedure: Compounds disclosed herein were assessed for disruption of IRE1 signaling using a IRE1a Endoribonuclease Nanoluciferase Assay. Briefly, 2.5×10^6 293T cells were seeded in a 10 cm^2 tissue culture plate. About 24 hours later, the cells were transfected with Effectene. In a 15 mL Tube, the following was added: 2 ug XBP1 luciferase reporter plasmid (PGK-Luc2-P2A-XBP1u-Nanoluciferase-PEST); 300 ul EC buffer; and 16 ul Enhancer, followed by incubation at room temp for 5 minutes. Next, 60 ul Effectene (Qiagen 301427) was added, followed by incubation at room temperature for 10 minutes. 2.6 mL cDMEM media was added. Old media was aspirated from the cells, followed by addition of 7 mL fresh media. Full transfection mixture was added dropwise to cells. Cells were incubated for 6 hours, followed by trypsinization, centrifugation and resuspension in 11 mL media. 100 uL of cells were plated per a well in a 96 well plate. A day later, ER stressors of choice +/− inhibitors were added. To harvest, media was aspirated from cells completely, then 50 uL 1× passive lysis buffer (Promega: E1941) was added per well and put on shaker (300 rpm) for 30 minutes at room temperature. […] Plates were read on luminometer, 1000 ms integration time per well. […] Plates were read on luminometer, 1000 ms second integration time per well. […]

| Compound | IC50 (IRE1a [1]) [nM] | EC50 (IRE1a [2]) [nM] |
| --- | --- | --- |
| N[C@H]1CC[C@H](Nc2ncc3cc(-c4cc(F)c(NS(=O)(=O)c5ccccc5Cl)cc4F)ccc3n2)CC1 | < 5 | < 5 |
| CCc1cc(-c2ccc(NS(=O)(=O)c3ccccc3Cl)c(F)c2)cc2cnc(N[C@H]3CC4C[C@H](N)CC4C3)nc12 (single isomer, unassigned) | 5 to 50 | 50 to 100 |
